# Yeast mating assay 2: variants of the scFv Ab-95

The target is the same throughout: PDVDLGDISGINAS, from the HR2 region of SARS-CoV-2 spike.

The variants keep the heavy chain, the linker and the frameworks of Ab-95 (scFv order VH, three GGGGS repeats, VL).
VH: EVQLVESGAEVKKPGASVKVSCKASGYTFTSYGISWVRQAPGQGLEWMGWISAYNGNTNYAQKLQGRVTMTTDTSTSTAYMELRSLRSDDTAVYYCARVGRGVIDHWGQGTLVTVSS
VL: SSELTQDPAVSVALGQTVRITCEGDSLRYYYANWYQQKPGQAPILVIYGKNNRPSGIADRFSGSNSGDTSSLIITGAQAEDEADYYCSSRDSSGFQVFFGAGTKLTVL

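The parent was found by panning a naive human phage display library on the peptide. Variants in AAYL52 differ from the parent at up to three CDR positions; double and triple changes were sampled at random. In AlphaSeq, yeast of one mating type display the scFv and yeast of the other type display the target. Pairs that bind mate more often; barcode pairs of the diploids are counted by sequencing. Each replicate has its own calibration line, from reference interactions of the BCL2 family. There are three technical replicates.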

Each variant is given by its three light chain CDRs, as the data file delimits them; those of the parent are EGDSLRYYYAN, GKNNRPS, SSRDSSGFQVF. The read-out is the apparent dissociation constant on a log10 scale (nM): the lower, the stronger. Averages over replicates are reported, and they cover detected replicates only. "nd" marks a missing value. The strain was present, yet no cells mated with the target were sequenced in that replicate, which points to weak or no binding. Empty control strains, which show no peptide, gave a signal in 28% of pairings with library AAYL52; the median was 3.91 and 95% of these signals were weaker than 2.90. No background was subtracted. For each scFv, signals with the empty controls are counted beside the result, with their mean in brackets.

{"CDR-L1": "EGDSLRYYYAN", "CDR-L2": "GKNNRPS", "CDR-L3": "NSRQSSGFQYF", "log10 Kd (nM) by replicate": "3.76 / nd / nd", "log10 Kd (nM), mean": "3.76", "empty controls": "0 of 9"}
{"CDR-L1": "EGDSLRYYYHN", "CDR-L2": "GKNNRPS", "CDR-L3": "ESRDSSGFRVF", "log10 Kd (nM) by replicate": "4.71 / 4.42 / nd", "log10 Kd (nM), mean": "4.56", "empty controls": "6 of 9 (4.22)"}
{"CDR-L1": "EGDLLRYYYAN", "CDR-L2": "GCNNRPS", "CDR-L3": "SSRGSSGFQVF", "log10 Kd (nM) by replicate": "nd / nd / nd", "log10 Kd (nM), mean": "nd", "empty controls": "0 of 9"}
{"CDR-L1": "EGDSWQYYYAN", "CDR-L2": "GKNNRPS", "CDR-L3": "SSRDSSDFQVF", "log10 Kd (nM) by replicate": "5.53 / 4.44 / nd", "log10 Kd (nM), mean": "4.99", "empty controls": "8 of 9 (4.04)"}
{"CDR-L1": "EGDGLCYYYAN", "CDR-L2": "GKNCRPS", "CDR-L3": "SSRDSSGFQVF", "log10 Kd (nM) by replicate": "nd / nd / nd", "log10 Kd (nM), mean": "nd", "empty controls": "4 of 9 (3.63)"}
{"CDR-L1": "EGDSLRYYYAV", "CDR-L2": "MKNNRPS", "CDR-L3": "SSRDSSGFGVF", "log10 Kd (nM) by replicate": "4.04 / 5.54 / nd", "log10 Kd (nM), mean": "4.79", "empty controls": "7 of 9 (3.67)"}
{"CDR-L1": "EGDSPRYYYAN", "CDR-L2": "HKNDRPS", "CDR-L3": "SSRDSSGFQVF", "log10 Kd (nM) by replicate": "3.06 / 3.91 / nd", "log10 Kd (nM), mean": "3.48", "empty controls": "3 of 9 (3.48)"}
{"CDR-L1": "EGDSGAGYYAN", "CDR-L2": "GKNNRPS", "CDR-L3": "SSRDSSGFQVF", "log10 Kd (nM) by replicate": "2.76 / 2.14 / 2.03", "log10 Kd (nM), mean": "2.31", "empty controls": "1 of 9 (5.04)"}
{"CDR-L1": "EGDSLRYYYAN", "CDR-L2": "GKNNRPS", "CDR-L3": "SSRDSSGFVVN", "log10 Kd (nM) by replicate": "3.09 / 3.85 / 2.77", "log10 Kd (nM), mean": "3.24", "empty controls": "2 of 9 (3.23)"}
{"CDR-L1": "EGDPLRSYYAC", "CDR-L2": "GKNNRPS", "CDR-L3": "SSRDSSGFQVF", "log10 Kd (nM) by replicate": "2.51 / 2.48 / 2.43", "log10 Kd (nM), mean": "2.47", "empty controls": "5 of 9 (3.57)"}
{"CDR-L1": "EGDSLRYYYAN", "CDR-L2": "GKQNRPE", "CDR-L3": "SSRDSSDFQVF", "log10 Kd (nM) by replicate": "3.52 / 4.36 / 2.39", "log10 Kd (nM), mean": "3.42", "empty controls": "2 of 9 (4.05)"}
{"CDR-L1": "EGDSLRYLYAN", "CDR-L2": "GKNNPPS", "CDR-L3": "SSRDSSGFQVK", "log10 Kd (nM) by replicate": "nd / nd / nd", "log10 Kd (nM), mean": "nd", "empty controls": "0 of 9"}
{"CDR-L1": "EGDSLRYYYAN", "CDR-L2": "GKNVRRS", "CDR-L3": "STRDSSGFQVF", "log10 Kd (nM) by replicate": "nd / 2.76 / nd", "log10 Kd (nM), mean": "2.76", "empty controls": "6 of 9 (4.12)"}
{"CDR-L1": "KGDSLRYYYAN", "CDR-L2": "YKNNRPS", "CDR-L3": "SSRDSSGFQVF", "log10 Kd (nM) by replicate": "2.93 / 2.90 / nd", "log10 Kd (nM), mean": "2.92", "empty controls": "3 of 9 (3.92)"}
{"CDR-L1": "EGDSSRYYYAN", "CDR-L2": "GKNNRPE", "CDR-L3": "SSRDSSGFWVF", "log10 Kd (nM) by replicate": "nd / 3.28 / nd", "log10 Kd (nM), mean": "3.28", "empty controls": "1 of 9 (4.51)"}
{"CDR-L1": "EGDSLRYYYAN", "CDR-L2": "GKNNRPS", "CDR-L3": "MSRDSSGFQAF", "log10 Kd (nM) by replicate": "3.28 / 3.62 / 2.98", "log10 Kd (nM), mean": "3.29", "empty controls": "4 of 9 (3.79)"}
{"CDR-L1": "EGDSLRYGYAN", "CDR-L2": "GKNNRPS", "CDR-L3": "SSRDSSGFQGY", "log10 Kd (nM) by replicate": "1.17 / 0.87 / 0.34", "log10 Kd (nM), mean": "0.79", "empty controls": "5 of 9 (3.77)"}
{"CDR-L1": "EGDSLRYYYAN", "CDR-L2": "GKNNDPS", "CDR-L3": "ASRDSSGFQVF", "log10 Kd (nM) by replicate": "3.48 / nd / nd", "log10 Kd (nM), mean": "3.48", "empty controls": "2 of 9 (4.47)"}
{"CDR-L1": "MGDSLRYYYAN", "CDR-L2": "GKNGRPS", "CDR-L3": "SSRDSSGPQVF", "log10 Kd (nM) by replicate": "2.94 / nd / 3.41", "log10 Kd (nM), mean": "3.18", "empty controls": "0 of 9"}
{"CDR-L1": "EGDSKRYYYAN", "CDR-L2": "GKNNNPS", "CDR-L3": "SSRDFSGFQVF", "log10 Kd (nM) by replicate": "nd / 3.36 / nd", "log10 Kd (nM), mean": "3.36", "empty controls": "2 of 9 (3.29)"}
{"CDR-L1": "EGDSARYYYAN", "CDR-L2": "GKNNRPS", "CDR-L3": "SSRDSVGFQVF", "log10 Kd (nM) by replicate": "2.25 / 3.62 / 2.44", "log10 Kd (nM), mean": "2.77", "empty controls": "1 of 9 (3.63)"}
{"CDR-L1": "EGDSLRYYYAN", "CDR-L2": "WKNNRPS", "CDR-L3": "SSFDSWGFQVF", "log10 Kd (nM) by replicate": "nd / 4.23 / nd", "log10 Kd (nM), mean": "4.23", "empty controls": "1 of 9 (3.20)"}

Excerpt, the final 4 entries:

CDR-L1,CDR-L2,CDR-L3,log10 Kd (nM) by replicate,"log10 Kd (nM), mean",empty controls
MGDSLRYYYAN,GKNGRPS,SSRDSSGPQVF,2.94 / nd / 3.41,3.18,0 of 9
EGDSKRYYYAN,GKNNNPS,SSRDFSGFQVF,nd / 3.36 / nd,3.36,2 of 9 (3.29)
EGDSARYYYAN,GKNNRPS,SSRDSVGFQVF,2.25 / 3.62 / 2.44,2.77,1 of 9 (3.63)
EGDSLRYYYAN,WKNNRPS,SSFDSWGFQVF,nd / 4.23 / nd,4.23,1 of 9 (3.20)

Parent in this assay: reference entry 2.31, copy in this library 2.25.

The measurements come from Engelhart et al. 2022 (doi:10.1038/s41597-022-01779-4) through the FLAb antibody collection.